Molecules are shown by their SMILES. pIC50: −log10 of the molar value.

By UniProt entry, the sequences of proteins in these tests, tags left out.
UniProt Q13547, whole entry: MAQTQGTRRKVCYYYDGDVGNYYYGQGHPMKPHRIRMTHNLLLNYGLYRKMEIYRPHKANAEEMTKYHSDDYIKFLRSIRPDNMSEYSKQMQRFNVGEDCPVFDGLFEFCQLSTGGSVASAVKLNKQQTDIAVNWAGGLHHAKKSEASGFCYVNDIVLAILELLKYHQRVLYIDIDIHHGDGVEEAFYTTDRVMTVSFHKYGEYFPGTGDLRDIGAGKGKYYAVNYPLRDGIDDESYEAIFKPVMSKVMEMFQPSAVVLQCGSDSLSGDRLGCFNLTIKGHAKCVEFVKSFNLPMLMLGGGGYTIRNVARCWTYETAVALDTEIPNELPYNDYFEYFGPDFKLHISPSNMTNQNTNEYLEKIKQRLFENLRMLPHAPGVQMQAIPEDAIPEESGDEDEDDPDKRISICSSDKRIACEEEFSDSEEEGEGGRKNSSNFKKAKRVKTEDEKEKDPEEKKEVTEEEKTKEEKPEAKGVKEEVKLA

The target in this assay is T1, recombinant human HDAC-1 enzyme (rHDAC-1) (Homo sapiens, UniProt Q13547).
T1 construct: made in house; host or cells: Baculovirus insect cell expression system
The assay is described as follows: Histone deacetylase inhibition, recombinant human HDAC-1. The class given is biochemical. The settings on record: cloned recombinant human HDAC-1, Baculovirus insect cell expression; read-out: rHDAC-1 IC50.

One may read the pIC50 as the IC50 on a negative log10 scale, so that one unit is a factor of ten. Turning to `Nc1ccccc1NC(=O)CCCCCn1cnc2ccccc2c1=O` [Compound 239a, N-(2-Aminophenyl)-6-[3-(4-oxo-4H-quinazolinyl)]hexanamide], the pIC50 is 4.94.

Turning to `Nc1ccccc1NC(=O)CCCCCN1C(=O)c2cccc3cc(O)cc(c23)C1=O` [Compound 251a, N-(2-Aminophenyl)-6-[2-(5-hydroxy-1,3-dioxo-1H,3H-benzo[de]isoquinolinyl)]hexanamide], the negative logarithm of the IC50 (pIC50) is 6.15.

For the origin of these results see patent US7288567B2, “Inhibitors of histone deacetylase” (Methylgene Inc., priority 2000, dated 2007).
